# Apparent affinities of Ab-91 variants for a coronavirus HR2 peptide

Reference: Engelhart et al. 2022, doi:10.1038/s41597-022-01779-4. File: FLAb, binding data.

Target: peptide PDVDLGDISGINAS, taken from heptad repeat 2 (HR2) of SARS-CoV-2 spike.

Parent: Ab-91, a human scFv built as VL, a (GGGGS)3 linker, VH. Only the CDRs of the heavy chain vary.
VL: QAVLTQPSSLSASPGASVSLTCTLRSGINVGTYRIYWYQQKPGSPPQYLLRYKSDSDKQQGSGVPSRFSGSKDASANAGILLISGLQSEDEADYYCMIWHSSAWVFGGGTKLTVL
VH: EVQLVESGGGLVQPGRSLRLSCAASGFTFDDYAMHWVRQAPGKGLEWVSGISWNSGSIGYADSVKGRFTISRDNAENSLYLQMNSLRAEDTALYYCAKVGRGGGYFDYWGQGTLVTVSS

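The starting antibody came from a phage panning campaign against this peptide. Variants in AAYL51 differ from the parent at up to three CDR positions; double and triple changes were sampled at random. In AlphaSeq, yeast of one mating type display the scFv and yeast of the other type display the target. After mating in shaken culture at 30 °C for 16 h, diploids were selected and their barcode pairs sequenced. Scores were corrected for input abundance and mapped to Kd with protein pairs of known affinity run in the same pool. Mating was done three times.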

Substitutions are numbered in sequence along the VH above, starting at 1 (not Kabat).
The read-out is the apparent dissociation constant on a log10 scale (nM): the lower, the stronger.
The mean shown is taken over the replicates in which the pair was detected.
"nd" means that the variant was in the library but no mating with the target was seen in that replicate; the authors take this as a sign of poor binding, and no number exists.

With F29L/A33Q/D62M the result was nd, nd, nd (controls 0 of 9).
With H35T/I58N the result was nd, nd, nd (controls 0 of 9).
With S52I/A61P/G100T the result was nd, nd, nd (controls 0 of 9).
With G50N/N54Q/S57Y the result was nd, 6.01, 3.63 (mean 4.82; controls 2 of 9).
With T28Y/M34F/D107H the result was 5.11, nd, 4.89 (mean 5.00; controls 7 of 9).
With M34H/I58C/Y108K the result was 1.67, 1.86, 1.04 (mean 1.52; controls 4 of 9).
With F29K/K65A/G102M the result was nd, nd, nd (controls 1 of 9).
With D31L/G59D/G104P the result was nd, nd, nd (controls 2 of 9).
With D30W/D31N/S57I the result was 3.43, 3.58, 3.35 (mean 3.45; controls 1 of 9).
With S52V/S55P/G56N the result was nd, 6.26, 3.92 (mean 5.09; controls 5 of 9).
With D30C/G50S/K65C the result was nd, nd, 3.33 (controls 2 of 9).
With G26M/F106D/D107L the result was nd, nd, nd (controls 0 of 9).
With G59V/D62C/S63M the result was 5.84, nd, 3.57 (mean 4.70; controls 4 of 9).
With F27Q/G59F/K65D the result was nd, nd, nd (controls 1 of 9).
With H35E/S52L/A61F the result was 5.17, nd, 5.37 (mean 5.27; controls 3 of 9).
With F29S/G50W/F106L the result was nd, nd, nd (controls 0 of 9).
With G26T/I51E/V99S the result was nd, 5.04, nd (controls 0 of 9).
With M34T/S52Q/Y60G the result was nd, nd, 3.95 (controls 1 of 9).
With G56T/Y105G the result was nd, nd, nd (controls 1 of 9).
With H35G the result was nd, nd, nd (controls 0 of 9).
With G50E/G100Y/G103T the result was nd, nd, nd (controls 0 of 9).
With G26E/M34N/D62P the result was 4.85, 4.67, 6.11 (mean 5.21; controls 9 of 9).
With A33C/S57E/Y60K the result was 5.26, 5.38, nd (mean 5.32; controls 2 of 9).
With G26K/G56P/G103N the result was nd, nd, nd (controls 0 of 9).
With G50M/G59C/G102H the result was nd, 5.54, nd (controls 2 of 9).
With I51E/G56N/R101L the result was 5.02, 4.69, 5.14 (mean 4.95; controls 5 of 9).
With I58H/Y105G/Y108V the result was 2.25, 2.33, 2.38 (mean 2.32; controls 3 of 9).
With G100V/G104V/F106D the result was nd, nd, nd (controls 1 of 9).
With A61Q the result was 1.75, 1.90, 1.77 (mean 1.81; controls 1 of 9).
With W53D/G102N/Y108D the result was 3.46, nd, nd (controls 0 of 9).
With F27Q/A61L/Y105A the result was nd, nd, nd (controls 0 of 9).
With M34K/A61C/K65E the result was nd, nd, nd (controls 0 of 9).
With N54V/D62A the result was nd, 4.18, nd (controls 0 of 9).
With A33N/G59M/G100W the result was nd, 4.10, nd (controls 2 of 9).
With S55H/D62F/G102P the result was nd, nd, nd (controls 0 of 9).
With Y60S/S63L/D107E the result was nd, nd, nd (controls 0 of 9).
With F29T/H35C/S63Y the result was 5.23, nd, nd (controls 3 of 9).
With G50D/S55Q/Y60M the result was nd, nd, nd (controls 1 of 9).
With T28E/Y32M/S63M the result was 3.24, 3.12, 2.55 (mean 2.97; controls 4 of 9).
With S52T/I58V/D107F the result was 5.13, nd, 5.14 (mean 5.13; controls 7 of 9).
With A61N the result was nd, nd, 5.46 (controls 4 of 9).
With G26V/N54R/V99G the result was 4.09, nd, nd (controls 3 of 9).
With S55Y/S57Q/G100H the result was nd, nd, nd (controls 1 of 9).

A selection of 4 entries from above:

The variant W53D/G102N/Y108D showed 3.46, nd, nd (controls 0 of 9).
The variant F27Q/G59F/K65D showed nd, nd, nd (controls 1 of 9).
The variant F29S/G50W/F106L showed nd, nd, nd (controls 0 of 9).
The variant A61N showed nd, nd, 5.46 (controls 4 of 9).

Empty control strains, which show no peptide, gave a signal in 21% of pairings with library AAYL51; the median was 4.54 and 95% of these signals were weaker than 3.26. No background was subtracted. For each scFv, signals with the empty controls are counted beside the result.
For reference, the parent read 1.86 as the reference entry and 0.88 as a member of this library.